Only a part is listed here, and it is no random draw. Activity calls are given as the source filed them.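 How the source made its calls: active means dye signal at least 3 control SD above or below untreated wells in both duplicates, raw fluorescence within 3, either direction; inactive means the rest.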
Experiment: parental HEK293 cell activity, no Kir2.1 – FluxOR thallium flux, duplicate, single concentration, counter-screen for Kir2.1 inhibitor project, confirmation (AID 2105)
Settings: parental HEK293 cells, FluxOR thallium flux fluorescence; at 10 µM

Row | Compound | activity change vs negative control
1 | CCC1=CC2Cc3nc4ccc(Cl)cc4c(N)c3C(C1)C2 (stereo unspecified) | inactive: 0%

From PubChem BioAssay AID2105 (Johns Hopkins Ion Channel Center, 2009)
